This note sets out measurements from PubChem BioAssay AID624330 (Southern Research Specialized Biocontainment Screening …, 2012).

The chains behind the UniProt entries cited, without tags or fusion partners.
UniProt Q9H0H5, whole entry: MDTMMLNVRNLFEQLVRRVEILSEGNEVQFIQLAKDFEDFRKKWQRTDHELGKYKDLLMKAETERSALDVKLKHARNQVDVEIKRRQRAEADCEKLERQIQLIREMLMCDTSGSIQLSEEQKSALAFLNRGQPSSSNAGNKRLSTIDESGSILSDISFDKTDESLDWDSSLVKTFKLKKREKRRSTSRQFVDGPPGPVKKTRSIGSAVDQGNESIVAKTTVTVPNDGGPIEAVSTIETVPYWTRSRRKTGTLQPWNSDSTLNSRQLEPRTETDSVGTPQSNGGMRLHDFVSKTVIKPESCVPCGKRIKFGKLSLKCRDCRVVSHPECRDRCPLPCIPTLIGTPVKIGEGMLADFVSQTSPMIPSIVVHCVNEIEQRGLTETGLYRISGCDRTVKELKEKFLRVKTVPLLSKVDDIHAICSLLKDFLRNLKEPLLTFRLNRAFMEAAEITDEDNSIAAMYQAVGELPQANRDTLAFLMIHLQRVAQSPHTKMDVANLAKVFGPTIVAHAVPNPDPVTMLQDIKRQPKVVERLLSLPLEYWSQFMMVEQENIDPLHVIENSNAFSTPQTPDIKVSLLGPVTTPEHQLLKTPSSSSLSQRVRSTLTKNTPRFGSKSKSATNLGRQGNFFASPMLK

SMILES strings stand for the structures. The list shows a part of the results. Results with a measured potency or affinity are listed apart. Activity calls are given as the source filed them.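 How the source made its calls: active means first-screen hits whose inhibition reached a set limit at any dose in the follow-up dose series; inconclusive means inhibition above the set first-screen limit but never retested; inactive means the rest.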

This experiment has as its target Rac GTPase-activating protein 1 (Homo sapiens) (UniProt Q9H0H5). Kind of experiment: MgcRacGAP GTPase-activating activity inhibitors, confirmation, biochemical, ADP Hunter fluorescence, primary and confirmatory (AID 624330).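 Further: fluorescence reports GDP produced by GAP-driven GTP hydrolysis.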 The note with it: MgcRacGAP-stimulated Rac1 GTP hydrolysis, at 30 µM, active compounds read high, GST-tagged Rac1 F28L mutant substrate.
As to `O=[N+]([O-])c1cc([N+](=O)[O-])c(-n2nnc3ccccc32)c([N+](=O)[O-])c1`, the inhibition is inactive: 6.96%.

With `O=[N+]([O-])c1cc([N+](=O)[O-])c(-c2cnn(-c3ccccc3)c2)c([N+](=O)[O-])c1`, the inhibition was inactive: 11.8%.

In the case of `Cc1nc2ccc3ccccc3c2s1.O=[N+]([O-])c1cc([N+](=O)[O-])c(O)c([N+](=O)[O-])c1`, the inhibition was inactive: 5.05%.

In the case of `CC1=C2N=C(C=C3N=C(C(C)=C4[N-][C@@](C)([C@@H]5N=C1[C@](C)(CCC(=O)NC[C@@H](C)OP(=O)([O-])O[C@H]1[C@@H](O)[C@@H](n6cnc7cc(C)c(C)cc76)O[C@@H]1CO)[C@H]5CC(N)=O)[C@@](C)(CC(N)=O)[C@@H]4CCC(N)=O)[C@@](C)(CC(N)=O)[C@@H]3CCC(N)=O)C(C)(C)[C@@H]2CCC(N)=O.[C-]#N.[Co+3]`, the inhibition is inactive: -32.9%.

For the compound `O=[N+]([O-])c1cc([N+](=O)[O-])c(Nc2nnnn2CCO)c([N+](=O)[O-])c1`, the inhibition was inactive: 3.87%.

In the case of `CCOC(=O)C(CC)C1=NC(C)(C)Cc2ccccc21.O=[N+]([O-])c1cc([N+](=O)[O-])c(O)c([N+](=O)[O-])c1` (stereo not drawn), the inhibition is inactive: -3.64%.

Consider `COc1ccccc1OP(C)(=O)Nc1c(C)cccc1C` (stereo not drawn), for which the inhibition was inactive: 1.8%.

`CN1CCCCC1COC(=O)C1(O)c2ccccc2CCc2ccccc21` (stereo not drawn): the inhibition was inactive: -16.4%.

On to `CCCOc1ccc(NP(C)(=O)Oc2ccc(Cl)cc2)cc1` (stereo not drawn), for which the inhibition was inactive: 6.03%.

As to `CP(=O)(Nc1ccc(SC(F)(F)F)cc1)Oc1ccccc1` (stereo not drawn), the inhibition was inactive: 3.77%.

With `O=C(O)c1cccc(Nc2c([N+](=O)[O-])cc([N+](=O)[O-])cc2[N+](=O)[O-])c1`, the inhibition is inactive: 19.6%.

With `CC1=NCCc2c1[nH]c1ccccc21.O=[N+]([O-])c1cc([N+](=O)[O-])c(O)c([N+](=O)[O-])c1`, the inhibition is inactive: 5.89%.

As for `COc1ccccc1OP(C)(=O)Nc1cccc(Br)c1` (stereo not drawn), the inhibition is inactive: 13.7%.

Take `CCOC(=O)c1ccc(NP(C)(=O)Oc2cc(C)cc(C)c2)cc1` (stereo not drawn): the inhibition was inactive: 7.16%.

For the compound `Cc1cc(C)cc(OP(C)(=O)Nc2ccc(C)cc2C)c1` (stereo not drawn), the inhibition was inactive: 1.7%.

Regarding `Cc1ccc(C)c(NP(C)(=O)Oc2ccccc2)c1` (stereo not drawn), the inhibition was inactive: 3.74%.

With `Cc1cc(C)cc(OP(C)(=O)Nc2ccccn2)c1` (stereo not drawn), the inhibition was inactive: 2.91%.

In the case of `CCN(CC)CCCOC(=O)C(O)(c1ccccc1)c1ccccc1`, the inhibition was inactive: 3.95%.

On to `O=[N+]([O-])c1cc([N+](=O)[O-])c(Nc2cccnc2)c([N+](=O)[O-])c1`, for which the inhibition was inactive: 8.21%.

For `O=[N+]([O-])c1ccc2c(c1)C=Nc1ccccc1O2`, the inhibition is inactive: 4.96%.

Take `CC(C)(C)c1ccc(OP(C)(=O)Nc2ccc(SC(F)(F)F)cc2)cc1` (stereo not drawn): the inhibition is inactive: -3.17%.

As for `Cc1cccc(C)c1OP(C)(N)=O` (stereo not drawn), the inhibition was inactive: 1.52%.

`COc1ccccc1OP(C)(=O)Nc1ccc(C)cc1` (stereo not drawn): the inhibition is inactive: 7.07%.

Consider `Cc1ccc(NP(C)(=O)Oc2ccccc2)c(C)c1` (stereo not drawn), for which the inhibition is inactive: 7.22%.

With `CCOC(=O)c1ccc(NP(C)(=O)Oc2ccccc2)cc1` (stereo not drawn), the inhibition is inactive: 4.14%.

Regarding `Cc1cc(C)cc(OP(C)(N)=O)c1` (stereo not drawn), the inhibition is inactive: -4.12%.

Take `COc1ccccc1OP(C)(=O)Nc1cc(Cl)ccc1C` (stereo not drawn): the inhibition is inactive: 5.17%.

Regarding `COc1ccc(OP(C)(=O)Nc2cccc(F)c2)cc1` (stereo not drawn), the inhibition is inactive: 5.96%.

With `CP(=S)(Nn1cnnc1)Oc1ccccc1` (stereo not drawn), the inhibition was inactive: -2.24%.

Take `CP(=O)(Nc1ccccc1Br)Oc1ccccc1` (stereo not drawn): the inhibition was inactive: 6.9%.

On to `COc1ccccc1OP(C)(=O)Nc1ccccc1` (stereo not drawn), for which the inhibition is inactive: 2.81%.

`Cc1ccc(Nc2c([N+](=O)[O-])cc([N+](=O)[O-])cc2[N+](=O)[O-])cc1`: the inhibition was inactive: 8.28%.

Consider `Cc1cccc(C)c1OP(C)(=O)Nc1ccc(SC(F)(F)F)cc1` (stereo not drawn), for which the inhibition was inactive: 1.28%.

Regarding `CP(=O)(Oc1ccccc1)OC(c1ccccc1)C(F)(F)F` (stereo not drawn), the inhibition is inactive: 7.26%.

In the case of `CP(=O)(NC(=O)Nc1ccccc1)Oc1ccccc1` (stereo not drawn), the inhibition is inactive: -7.56%.

`CCc1ccc(OP(C)(=O)N2CCN(c3ccc([N+](=O)[O-])cc3)CC2)cc1` (stereo not drawn): the inhibition is inactive: 5.85%.

Regarding `Cc1cc(C)cc(OP(C)(=O)Nc2ccc(SC(F)(F)F)cc2)c1` (stereo not drawn), the inhibition is inactive: 1.18%.

Regarding `CCOC(=O)c1ccc(NP(C)(=O)Oc2ccc(OC)cc2)cc1` (stereo not drawn), the inhibition is inactive: 8.1%.

`CCOP(C)(=S)SCC(=O)NC(C)C(=O)O` (stereo not drawn): the inhibition is inactive: 6.25%.

For the compound `CP(=O)(Nc1ccccn1)Oc1ccc(Cl)cc1` (stereo not drawn), the inhibition was inactive: 9.24%.

For the compound `CCN(CC)CC(O)COC(=O)C(O)(c1ccccc1)C1CCCCC1` (stereo not drawn), the inhibition was inactive: 4.95%.

With `COc1ccc(OP(C)(=O)Nc2ccc(Br)cc2)cc1` (stereo not drawn), the inhibition is inactive: -1.27%.

Regarding `COc1ccccc1OP(C)(=O)Nc1c(C)n(C)n(-c2ccccc2)c1=O` (stereo not drawn), the inhibition is inactive: 10.5%.

Consider `O=C(OCCCN1CCCC1)C(O)(c1ccccc1)C1CCCCC1` (stereo not drawn), for which the inhibition was inactive: 15.5%.

`CP(=O)(Oc1ccccc1)N1CCOC1=O` (stereo not drawn): the inhibition was inactive: 3.2%.

On to `CCc1ccc(OP(C)(=O)Nc2cccnc2)cc1` (stereo not drawn), for which the inhibition is inactive: -10.5%.

In the case of `COc1ccccc1OP(C)(=O)Nc1ccccc1Br` (stereo not drawn), the inhibition was inactive: 7.56%.

With `CC(C)(C)c1ccc(OP(C)(=O)O)cc1`, the inhibition is inactive: 5.8%.

For the compound `CP(=O)(Nc1ccc(Cl)cc1)Oc1ccc(F)cc1` (stereo not drawn), the inhibition was inactive: 3.39%.

On to `CN(C)C(=O)c1c([N+](=O)[O-])cc([N+](=O)[O-])cc1[N+](=O)[O-]`, for which the inhibition was inactive: -6.76%.

For `CCOC(=O)c1ccc(NP(C)(=O)Oc2ccc(Cl)cc2)cc1` (stereo not drawn), the inhibition is inactive: 8.09%.

Consider `CP(=O)(OC12CC3CC(CC(C3)C1)C2)OC12CC3CC(CC(C3)C1)C2`, for which the inhibition is inactive: 9.2%.

For `O=C1C(O)=C([N+](=O)[O-])C(=O)C(O)=C1[N+](=O)[O-]`, the inhibition was inactive: 22.9%.

Take `Cc1cc(C)cc(OP(C)(=O)Nc2cccc(C(F)(F)F)c2)c1` (stereo not drawn): the inhibition was inactive: 4.51%.

Take `COc1ccccc1OP(C)(=O)Nc1ccc(C)c(C)c1` (stereo not drawn): the inhibition is inactive: 13.4%.

Consider `COc1ccc(OP(C)(=O)Nc2ccccc2Br)cc1` (stereo not drawn), for which the inhibition is inactive: 5.97%.

For `CP(=O)(Nc1ccc(Cl)cc1Cl)Oc1ccccc1` (stereo not drawn), the inhibition was inactive: 14%.

Take `CP(=O)(OCCOc1ccccc1)OCCOc1ccccc1`: the inhibition was inactive: 3.6%.

As a reminder, the inhibition is the drop in the measured response relative to a control, in per cent.
